This series deals with MDA-MB-231 cells. In words: Half-life of biotin-labeled peptides in living cells (Western blotting). The note with it: biotin-labeled peptide 20 µM for 2 h, then fresh medium, cells collected 0-48 h, β-actin loading control. Format: in vitro ADME, human. How it is done:
SDS-PAGE gel electrophoresis and Coomassie brilliant blue staining were performed to measure peptide stability. […] Cells were collected at different post-treatment time points (0, 1, 2, 4, 8, 16, 24, 36, 48 h). […] D The docking of peptide P22 (106–126) to the FOXM1 C-terminus (PDB ID 6OSW) was created by Rosetta FlexPepDock and PyMOL. Left, the interface of peptide-protein interaction, the peptide was shown in cyan, and the C-terminus of FOXM1 was shown according to its electrostatic potential. Right, hydrogen bonds are formed by residues at the interface of peptide and protein interaction. […] Streptavidin magnetic beads were added to lysates to pull down the biotin-peptides/protein complexes. […] M1-21mut was used as the control.

With `CC[C@@H](C)[C@@H](NC(=O)[C@@H](CC(C)C)NC(=O)[C@H](NC(=O)[C@@H](CO)NC(=O)[C@@H](CS)NC(=O)CNC(=O)CNC(=O)[C@@H](C)NC(=O)[C@H]1CCCN1C(=O)[C@H](NC(=O)[C@@H](CCC(N)=O)NC(=O)[C@H]1CCCN1C(=O)[C@H]1CCCN1C(=O)CNC(=O)[C@@H](CC(C)C)NC(=O)[C@@H](CCCNC(=N)N)NC(=O)[C@H]1CCCN1C(=O)[C@@H](CCC(N)=O)NC(=O)[C@H](NC(=O)[C@H](N)CCC(N)=O)[C@H](C)O)[C@H](C)O)[C@H](C)CC)C(=O)N[C@H](Cc1ccccc1)C(=O)N[C@H](CCCNC(=N)N)C(=O)N[C@H](CCCNC(=N)N)C(=O)N[C@H](CCCNC(=N)N)C(=O)N[C@H](CCC(N)=O)C(=O)N[C@H](CCCNC(=N)N)C(=O)N[C@H](CCCNC(=N)N)C(=O)N[C@H](CCCCN)C(=O)N[C@H](CCCCN)C(=O)N[C@H](CCCNC(=N)N)C(=O)NCC(=O)O` [M1-21], the “Half-life in living MDA-MB-231 cells” value turned out to be 11.5 h.

The values are drawn from paper PMC10286459, “The development of an anti-cancer peptide M1-21 targeting transcription factor FOXM1” (Cell & Bioscience, 2023).
